Literature values in US20080008772A1, “Narcotic biphasic release compositions and methods for treatment of coughing, sneezing, rhinorrhea, and/or nasal obstruction” (Everett Laboratories, Inc., priority 2006, published 2008).

COc1ccc2c3c1O[C@H]1C(=O)CC[C@H]4[C@@H](C2)N(C)CC[C@]314.COc1ccc2c3c1O[C@H]1C(=O)CC[C@H]4[C@@H](C2)N(C)CC[C@]314.O.O.O.O.O.O=C(O)C(O)C(O)C(=O)O.O=C(O)C(O)C(O)C(=O)O [Hydrocodone bitartrate, 4,5a-epoxy-3-methoxy-17-methylmorphinan-6-one tartrate (1:1)hydrate (2:5)]
solubility in alcohol (alcohol): slightly soluble | solubility in chloroform (chloroform): insoluble | solubility in ether (ether): insoluble | solubility in water (water): soluble
